Test results from patent US20060025390A1, “Treatment of hormone allergy and related symptoms and disorders” (priority 2004, published 2006).

Key:
[1] = tested on: serum IgG anti-estrogen antibodies; assay: Competition ELISA: absorption of serum IgG anti-estrogen with specific and non-specific antigens; assay type: binding, human; details: for IgG level after absorption: absorption with 250 μg/mL, optical density 405 nm
Method: (§1) For this, microtiter plates were coated with hormones and blocked by the addition of 2% BSA in PBST. 100 μl of serum diluent buffer was added to all wells. […] After 60 minutes incubation 100 μl serum anti-estrogen or anti-progesterone was added to all wells. […] Results were calculated as percentage of inhibition in antigen-antibody reaction.
(§2) To examine whether antibodies to estrogen or progesterone are specific or cross-reactive, we performed competition ELISA by adding specific and non-specific antigens in liquid phase and examined prevention of serum antibody binding to the antigen in solid phase. […] For IgE anti-estrogen, this inhibition by estrogen-BSA was between 54-62%, and with progesterone-BSA, from 37-43%. […] This cross-reaction between estrogen and progesterone antibodies may be due to structural similarities between these two hormones.

[2] = tested on: serum IgE anti-estrogen antibodies; assay: Competition ELISA: absorption of serum IgE anti-estrogen with specific and non-specific antigens; assay type: binding, human; details: for IgE level after absorption: absorption with 250 μg/mL, optical density 405 nm
Method: as §1, §2

[3] = antigen in liquid phase, over the three sera

inhibition of anti-estrogen binding to estrogen (IgG) [1, 3]: did not significantly absorb
inhibition of IgE anti-estrogen binding [2, 3]: did not significantly absorb
Substance: human serum albumin [HSA]
IgG level after absorption ([1]; serum sample 1, before absorption 1.83): 1.81
IgG level after absorption ([1]; serum sample 2, before absorption 1.25): 1.19
IgG level after absorption ([1]; serum sample 3, before absorption 0.76): 0.78
IgE level after absorption ([2]; serum sample 1, before absorption 2.15): 2.11
IgE level after absorption ([2]; serum sample 2, before absorption 1.66): 1.59
IgE level after absorption ([2]; serum sample 3, before absorption 1.34): 1.21
